This is an account of results in ChEMBL document CHEMBL3856187, “Cyclin Dependent Kinase 9 Inhibitors for Cancer Therapy” (J Med Chem, 2016).

Protein sequences, listed by entry. Tags and fused reporters are not part of them.
UniProt P50750, whole entry: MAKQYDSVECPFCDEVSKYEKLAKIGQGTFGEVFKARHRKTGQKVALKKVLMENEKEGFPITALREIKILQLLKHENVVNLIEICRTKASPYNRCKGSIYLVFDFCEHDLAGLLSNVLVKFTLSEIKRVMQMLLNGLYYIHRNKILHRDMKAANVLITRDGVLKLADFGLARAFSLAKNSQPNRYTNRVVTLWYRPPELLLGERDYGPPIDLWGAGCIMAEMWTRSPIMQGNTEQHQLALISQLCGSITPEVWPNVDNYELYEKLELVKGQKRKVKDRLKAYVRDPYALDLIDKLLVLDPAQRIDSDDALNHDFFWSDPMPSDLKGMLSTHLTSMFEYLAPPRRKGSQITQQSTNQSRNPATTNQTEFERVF

Each structure is given as a SMILES string.

The target of the test is Cyclin-dependent kinase 9 (Homo sapiens, UniProt P50750). Kind of test: Inhibition of human GST-tagged CDK9.

What is called IC50 is the point on the concentration scale where inhibition reaches its midpoint. Low values mean greater potency, high ones weaker potency. Compound `CN1C/C=C/CCOc2cccc(c2)-c2ccnc(n2)Nc2cccc(c2)C1` [ZOTIRACICLIB] returned an IC50 of 3 to 15 nM.
